The assay concerns the target T1, lamprey MCa receptor (Lampetra fluviatilis, UniProt A6XB56).
T1 sequence (A6XB56 1-341): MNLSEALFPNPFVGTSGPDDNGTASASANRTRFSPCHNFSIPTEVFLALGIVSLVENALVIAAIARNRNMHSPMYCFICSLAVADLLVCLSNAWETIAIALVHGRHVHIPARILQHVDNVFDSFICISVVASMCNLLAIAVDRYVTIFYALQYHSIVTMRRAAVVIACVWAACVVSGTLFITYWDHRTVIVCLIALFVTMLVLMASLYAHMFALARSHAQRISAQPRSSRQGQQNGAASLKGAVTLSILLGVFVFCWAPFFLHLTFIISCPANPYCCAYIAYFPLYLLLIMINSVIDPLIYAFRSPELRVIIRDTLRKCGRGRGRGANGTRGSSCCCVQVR
Briefly: Radioligand binding assay (saturation and competition, [125I] NDP-MSH), lamprey MCa. More on the design: species or system river lamprey. As to conditions: HEK-293 EBNA membranes, 0.6 nM [125I] NDP-MSH, pH 7.4, 2 h, room temperature; mean ± SEM, duplicate, at least three independent experiments; * P < 0.01 (α-MSH, γ1-MSH, ACTH(1–39), MSH-A); read-out: Ki (mean ± SEM) from competition curves, lamprey MCa. As to the method:
HEK-293 (human embryonic kidney) cells with Epstein-Barr nuclear antigen (EBNA) grown to 50–70% confluence were transfected with 10 μg of the construct using FuGENE-6 Transfection Reagent (Roche, Sweden) according to the manufacturers' instruction. The cells were grown in Dulbeccos Modified Eagle Media and F-12 Nutrient Mixture (D-MEM/F-12) (1:1) with GlutaMAX I containing 10% foetal bovine serum, 100 u/ml penicillin, 100 μg/ml streptomycin, 2.5 ug/ml amphotericin B, and 250 μg/ml geneticin G-418 (Invitrogen); in humidified atmosphere of 95% air and 5% CO2 at 37°C. Semi-stable cell lines, expressing target receptor, were obtained by selecting for growth in the presence of 100 μg/ml hygromycin B (Invitrogen), first added 24 hours after transfection.
HEK-293 EBNA cells expressing MC receptors were harvested from plate and resuspended in binding buffer composed of 25 mM HEPES, 2.5 mM CaCl2, 1 mM MgCl2 and 0.2% bacitracin, pH adjusted to 7.4. To obtain the membranes, cells were mechanically homogenized with Ultra Turrax. […] MeltiLex A scintillator sheets (Perkin Elmer, USA) were melted on dried filters and radioactivity was counted with an automatic Microbeta counter 1450 (Perkin Elmer). […] The results were analysed with Prism 3.0 software package (GraphPad, USA). […]

In the case of “β-melanocyte stimulating hormone [β-MSH]”, the Ki (as a rule, a dissociation constant, usually derived from enzyme kinetics or from competition with a known ligand) is 54.7 ± 5.1 nM.

These data come from PMC1925065, “Functional characterization of two melanocortin (MC) receptors in lamprey showing orthology to the MC1 and MC4 receptor subtypes” (BMC Evolutionary Biology, 2007).
